{"sequences": {"note": "The chains behind the UniProt entries cited, without tags or fusion partners.", "UniProt Q9HBW0, whole entry": "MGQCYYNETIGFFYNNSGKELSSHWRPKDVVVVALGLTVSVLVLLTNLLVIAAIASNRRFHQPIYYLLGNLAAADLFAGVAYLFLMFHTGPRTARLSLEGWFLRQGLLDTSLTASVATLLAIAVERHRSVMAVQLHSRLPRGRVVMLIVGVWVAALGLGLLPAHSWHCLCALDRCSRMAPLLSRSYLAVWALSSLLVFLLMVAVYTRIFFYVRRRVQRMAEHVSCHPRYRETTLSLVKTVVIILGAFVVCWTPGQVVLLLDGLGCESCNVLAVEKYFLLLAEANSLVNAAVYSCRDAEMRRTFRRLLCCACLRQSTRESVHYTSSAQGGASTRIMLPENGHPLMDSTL"}, "source": "ChEMBL document CHEMBL3352405", "about": "“Design and synthesis of sulfamoyl benzoic acid analogues with subnanomolar agonist activity specific to the LPA2 receptor” (J Med Chem, 2014)", "molecular_target": "Lysophosphatidic acid receptor 2 (Homo sapiens, UniProt Q9HBW0)", "experiment": "Agonist activity at human LPA2 expressed in LPA1xLPA2 double knockout mouse MEF cells by Fura-2AM dye based Ca2+ mobilization assay relative to LPA 18:1", "assay_type": "functional, cell-based"}
{"smiles": "O=C(O)c1ccccc1S(=O)(=O)NCCCN1C(=O)c2cccc3cccc(c23)C1=O", "values": [{"measurement": "Emax", "result": 100, "unit": "%"}]}
